The source made the active and inactive calls. The rule behind the calls is not given here.
Target: Prolyl 4-hydroxylase subunit alpha-1 (Homo sapiens, UniProt P13674)
Experiment: Competitive inhibition of human recombinant CP4H1 expressed in Escherichia coli Origami B(DE3) pre-incubated for 2 mins followed by alpha-ketoglutarate addition using dansylGlyProProGlyOEt substrate in Tris-HCl buffer at pH 7.8 at 30 degC by HPLC based Lineweaver-Burk analysis

Protein sequences, listed by entry. Tags and fused reporters are not part of them. Lines headed by an entry give the natural chain unless they say otherwise; changes in a name come on top.
UniProt P13674: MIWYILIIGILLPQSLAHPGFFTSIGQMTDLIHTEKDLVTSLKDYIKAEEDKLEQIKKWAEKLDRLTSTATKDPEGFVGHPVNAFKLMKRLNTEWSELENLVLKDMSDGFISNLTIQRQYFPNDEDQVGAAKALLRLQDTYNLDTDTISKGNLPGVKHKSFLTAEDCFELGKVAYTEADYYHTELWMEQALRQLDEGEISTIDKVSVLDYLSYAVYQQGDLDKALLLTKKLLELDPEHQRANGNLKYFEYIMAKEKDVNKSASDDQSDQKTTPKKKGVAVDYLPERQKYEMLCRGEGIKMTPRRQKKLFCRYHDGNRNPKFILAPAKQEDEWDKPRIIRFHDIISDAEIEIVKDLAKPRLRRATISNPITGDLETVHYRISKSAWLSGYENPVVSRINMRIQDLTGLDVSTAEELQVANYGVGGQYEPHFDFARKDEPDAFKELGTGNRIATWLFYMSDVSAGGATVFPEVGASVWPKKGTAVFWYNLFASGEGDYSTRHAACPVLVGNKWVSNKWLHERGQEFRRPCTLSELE

Q: `O=C(O)c1ccc(-c2ccc(C(=O)O)cn2)nc1` was tested. Which inhibition did it give?
A: The inhibition was “Active”.

From ChEMBL document CHEMBL3585337, “Selective inhibition of prolyl 4-hydroxylases by bipyridinedicarboxylates” (Bioorg Med Chem, 2015)
